Test system: Type I Collagen gene Col1a1 expression
Test: Precision cut lung slices, mice under acute bleomycin exposure (Example B8)
Assay type: cell-based
Method: Mice (C57BL/6) were administered 3 U/kg of bleomycin (Teva Pharmaceuticals; North Wales, Pa.) on day 0 via oropharyngeal aspiration while under anesthesia. On day 14, precision cut lung slices were obtained. Following euthanization, 2% low gelling temp agarose was injected into the mouse lungs via the trachea. […] The lobes were then subjected to precision slicing to obtain samples for culture using a microtome (Compresstome VF-300-0Z, Precisionary; Greenville, N.C.). Individual slices were distributed in a multiwell culture plate and cultured for 3 days under control (DMSO) and test compound conditions.

## Cc1cc(C)n(-c2cccc([C@H](CC(=O)O)CN3CC[C@H](CCc4ccc5c(n4)NCCC5)C3)c2)n1 [first pan-av small molecule inhibitor, (3S)-3-[3-(3,5-dimethyl-1H-pyrazol-1-yl)phenyl]-4-{(3S)-3-[2-(5,6,7,8-tetrahydro-1,8-naphthyridin-2-yl)ethyl]-1-pyrrolidinyl}butanoic acid]
  Type I Collagen gene Col1a1 expression: reduced Type I Collagen gene Col1a1 expression

— US11419869B2, “Dosage forms and regimens for amino acid compounds” (Pliant Therapeutics, Inc., priority 2019, dated 2022)
